{"source": "patent US10662060B2", "about": "“Manufacture of lipid-based nanoparticles using a dual asymmetric centrifuge” (priority 2004, dated 2020)", "experiment": "Inclusion efficiency for albumin in liposomes (BCA test in supernatant after centrifugation)", "format": "physicochemical", "settings": "EPC3/cholesterol 55/45, 3540 rpm 10 min", "protocol": "Within the context of the present invention, the “enclosure efficiency” is the ratio (percentage) of the amount of the measured substance (e.g., of an active substance) which is included in the lipid-based nanoparticles, associated to the nanoparticles or incorporated into the nanoparticles, to the total amount of the respective substance used for the formulation.\nInto six sterile glass vials (diameter 10 mm), 100 mg each of glass beads (diameter 1 mm) and 50 mg each of the mixture of hydrogenated egg phosphatidylcholine and cholesterol (55/45 mole %) existing as a solid solution was weighed. Into three of the vials, 75 μl each of an albumin solution was pipetted in concentrations of 1, 2 and 3 mg/ml. Into the fourth to sixth vials, 75 μl each of NaCl solution having a concentration of 0.9% was added. The closed vials were subjected to speed mixing at 3540 rpm for 10 minutes each. The three liposome gels loaded with albumin were redispersed with 250 μl each of NaCl solution. In contrast, the liposome gels prepared with saline only (vials 4-6) were redispersed with 175 μl of NaCl solution plus 75 μl of albumin solution (1, 2, 3 mg/ml). Subsequently, the thus formed liposomal dispersions were pipetted into suitable centrifuge tubes and centrifuged at 350,000 g, whereupon the liposomes sedimented. In the supernatant, the albumin concentration was subsequently determined by means of a BCA test (Interchim/Uptima, No. UP95424), and the inclusion efficiency was calculated. Result of inclusion efficiency for albumin in liposomes by speed mixing: […]"}
{"substance": "albumin", "values": [{"measurement": "inclusion efficiency for albumin in liposomes by speed mixing", "setting": "1 mg/ml albumin solution", "result": 60.9, "unit": "%"}, {"measurement": "inclusion efficiency for albumin in liposomes by speed mixing", "setting": "2 mg/ml albumin solution", "result": 70.9, "unit": "%"}, {"measurement": "inclusion efficiency for albumin in liposomes by speed mixing", "setting": "3 mg/ml albumin solution", "result": 71.8, "unit": "%"}]}
